What was measured:
[1] = target: CYP3A4 (Homo sapiens, UniProt P08684)
[2] = target: Photinus pyralis (firefly) luciferase (Photinus pyralis, UniProt P08659)

Amino acid sequences for entries named in this document (tags omitted).
UniProt P08684, whole entry: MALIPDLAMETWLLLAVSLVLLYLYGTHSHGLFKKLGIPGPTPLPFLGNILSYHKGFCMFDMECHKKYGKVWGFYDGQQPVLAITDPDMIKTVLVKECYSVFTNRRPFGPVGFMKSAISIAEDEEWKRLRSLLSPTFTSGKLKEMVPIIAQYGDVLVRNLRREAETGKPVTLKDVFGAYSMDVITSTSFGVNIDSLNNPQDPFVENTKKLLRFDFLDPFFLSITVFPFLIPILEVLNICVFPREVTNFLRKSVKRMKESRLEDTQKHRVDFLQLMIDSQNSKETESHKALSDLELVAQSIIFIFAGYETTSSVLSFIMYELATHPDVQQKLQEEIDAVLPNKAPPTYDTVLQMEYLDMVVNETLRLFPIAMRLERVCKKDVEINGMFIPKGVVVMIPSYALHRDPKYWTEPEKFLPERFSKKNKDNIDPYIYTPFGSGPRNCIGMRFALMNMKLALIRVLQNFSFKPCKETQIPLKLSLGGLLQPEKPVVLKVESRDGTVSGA
UniProt P08659, whole entry: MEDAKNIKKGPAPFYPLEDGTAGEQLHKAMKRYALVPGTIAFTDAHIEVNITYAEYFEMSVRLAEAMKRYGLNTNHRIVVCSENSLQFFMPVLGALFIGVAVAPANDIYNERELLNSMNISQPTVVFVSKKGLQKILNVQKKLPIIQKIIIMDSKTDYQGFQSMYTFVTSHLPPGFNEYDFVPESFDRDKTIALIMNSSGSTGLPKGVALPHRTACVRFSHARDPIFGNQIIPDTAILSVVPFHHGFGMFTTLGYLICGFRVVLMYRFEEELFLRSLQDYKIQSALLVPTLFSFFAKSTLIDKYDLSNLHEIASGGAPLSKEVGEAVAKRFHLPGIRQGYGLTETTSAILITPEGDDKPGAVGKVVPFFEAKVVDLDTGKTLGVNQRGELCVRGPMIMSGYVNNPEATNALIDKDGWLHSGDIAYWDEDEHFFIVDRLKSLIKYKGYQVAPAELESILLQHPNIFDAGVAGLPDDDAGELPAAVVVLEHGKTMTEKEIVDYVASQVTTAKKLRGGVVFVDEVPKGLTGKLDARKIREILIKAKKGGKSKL

SMILES | CYP3A4 Efficacy (in parenthesis) [1] | Luciferase IC50 (half-maximal inhibitory concentration) [2]
CCC(C)n1ncn(-c2ccc(N3CCN(c4ccc(OCC5COC(Cn6cncn6)(c6ccc(Cl)cc6Cl)O5)cc4)CC3)cc2)c1=O (centres unmarked) [Itraconazole] | 0.13 ± 0.04 (-76 ± 8) % | 
CCN[C@@H]1C[C@H](N)[C@@H](O[C@H]2OC(CN)=CC[C@H]2N)[C@H](O)[C@H]1O[C@H]1OC[C@](C)(O)[C@H](NC)[C@H]1O.CCN[C@@H]1C[C@H](N)[C@@H](O[C@H]2OC(CN)=CC[C@H]2N)[C@H](O)[C@H]1O[C@H]1OC[C@](C)(O)[C@H](NC)[C@H]1O.O=S(=O)(O)O.O=S(=O)(O)O.O=S(=O)(O)O.O=S(=O)(O)O.O=S(=O)(O)O [Netilmicin sulfate] |  | Inactive

— article PMC12155096 (International Journal of Molecular Sciences, 2025)
